Source: PubChem BioAssay
Only some compounds are listed: those with a hit (about 13% of all), similar ones and a draw of the others.
miR-21 FLuc – miR-21 reporter, rising signal | HeLa miR-21 FLuc reporter, luciferase, 48 h | Potency, µM (top dose mostly 38.3 µM), inactives show at the highest dose reporter change, positive = more light | 340,000 tested, under 10 active | AID 2288; active = well fitted rising curve with a large enough effect; inconclusive = small, poorly fitted or top-dose-only effect; inactive = no such curve, though single readings can be large or run the other way;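 note: % of control where 0% means no effect; miR-21 action dims this reporter so a rising signal means less miR-21 action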
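HeLa cells stably expressing CMV-driven firefly luciferase with a downstream miR-21 binding sequence, endogenously expressing miR-21, were treated with titrations (up to about 40uM final) for 48 hours at 37 degree Celsius. Luciferase luminescence was read after lysis.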
ALDH1A1 block – inhibitors of human aldehyde dehydrogenase 1A1 | P00352 | Purified ALDH1A1, NADH fluorescence, propionaldehyde substrate | Potency, µM (highest dose often 75.3 µM), for the others: top-dose activity, negative = inhibition, actives largely listed as inhibitors | hit rate 7.3% among 220,000 | AID 1030; active = well fitted inhibition curve with a large enough effect, not every such curve was filed as active; inconclusive = small, poorly fitted or top-dose-only effect, or another doubt; inactive = no such curve, though single readings can be large or run the other way;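 also: potency is read from the fitted curve at half-maximal effect; plate controls were no enzyme wells and a reference inhibitor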
LMNA splice mod – modulators of lamin A splicing; HeLa LMNA splicing GFP/RFP minigene ratio, 48 h; Potency, µM (doses to about 46.1 µM), for inactives: top-dose ratio change, negative = inhibition, actives largely listed as inhibitors; hit rate 0.01% among 200,000; AID 1487; active = well fitted inhibition curve with a large enough effect in the signal ratio, with a control signal flat, not every such curve was filed as active; inconclusive = small, poorly fitted or top-dose-only effect, or effect the other way, or a change in a side signal; the % refers to the signal ratio; also: potency is read from the fitted curve at half-maximal effect; % is scaled to controls: 0 for no effect and ±100 for the full control effect
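S3 HeLa cells stably expressing lamin A-EGFP splicing minigene plus DsRed2, 600 cells/well, 48 h compound exposure at 37C. Laser-scanning cytometry; analysed as GFP (500-530 nm)/RFP (575-640 nm) total intensity ratio; 0.5% DMSO vehicle.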
KDM4E inh – JMJD2E (human) inhibition; B2RXH2; JMJD2E catalytic domain, FDH-coupled NADH fluorescence (FDH is formaldehyde dehydrogenase); Potency, µM (titrated, usually from 57.1 µM), inactives show top-dose activity change, negative = inhibition, hits mostly inhibitors; hit rate 1.6% among 230,000; AID 2147; active = well fitted inhibition curve with a large enough effect, not every such curve was filed as active; inconclusive = small, poorly fitted or top-dose-only effect, or another doubt; inactive = no such curve, though single readings can be large or run the other way;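 also: potency is read from the fitted curve at half-maximal effect; 0% = wells with enzyme and -100% = buffer wells without enzyme; nearly all actives have a fitted effect of over 50% in size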
G9a block – inhibitors of human histone lysine methyltransferase G9a. Q96KQ7. G9a H3K9 monomethylation, AlphaScreen, 2 h. Potency, µM (series often up to 102 µM), for inactives: top-dose activity, negative = inhibition, hits mostly inhibitors. hit rate 8.8% among 350,000. AID 504332; also: potency is read from the fitted curve at half-maximal effect; % is scaled to controls: 0 for no effect and ±100 for the full control effect; nearly all actives have a fitted effect of over 75% in size
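Chemiluminescent proximity detection of H3K9 monomethylation, read after 10 min bead incubation in the dark. Reaction: 20 nM G9a, 500 nM biotin-H3K9 peptide, 20 uM SAM cofactor, 2 h, room temperature, following 15 min enzyme-compound preincubation.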
Sfp PPTase inh – blocks B. subtilis Sfp PPTase activity; 310,000 tested, 3.5% active; AID 1490; Biochemical Sfp PPTase activity, qHTS; Potency, µM, for the others: max response, negative = inhibition, usual class: inhibitors; active = well fitted inhibition curve with a large enough effect; inconclusive = small, poorly fitted or top-dose-only effect, or another doubt; inactive = no such curve, though single readings can be large or run the other way;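 also: the enzyme is Sfp with the accession as filed and its product quenches rhodamine fluorescence; potency is read from the fitted curve at half-maximal effect; 0% = enzyme reaction without inhibitor and -100% = no enzyme wells; top concentration of the series not given in the record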
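Fluorescence-quenching assay with 15 nM Sfp, 5 uM rhodamine-CoA and 12.5 uM BHQ-2-labelled ybbR peptide in pH 7.6 Hepes/MgCl2 buffer. Enzyme was pre-incubated with compound for 15 min at room temperature. Rate was taken from the 30-min fluorescence change (525/598 nm).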
The depositor's hits bear a star; u = inconclusive; x = no result given; [ ] = dose if it differs, or a comment. Unless noted, calls follow the shape of the dose curve; as a rule, active = well fitted curve in the direction sought with a large enough effect; inconclusive = small, poorly fitted or top-dose-only effect, or another doubt; inactive = no such curve, though single readings can be large; an effect the other way counts as inactive or inconclusive.

cpd	molecule	miR-21 FLuc	ALDH1A1 block	LMNA splice mod	KDM4E inh	G9a block	Sfp PPTase inh
1	O=S(=O)(c1cccc(Br)c1)N1CCN(C(=S)NCC2CCCO2)CC1 (stereo unspecified)	x	x	x	x	6%	x
2	N#CCCn1c(=O)c(-c2ccc(F)cc2)nc2cnc(N3CCNCC3)nc21	x	u	2%	x	6%[0.501 µM]	12%
3	COc1cc(/C=N/NC(N)=O)ccc1OCC(=O)Nc1cc(C)c(C)cc1Br	-7%	-6%	x	-14%	x	-5%
4	O=C(c1ccc(Br)cc1)N1CCC(c2nc3ccccc3s2)CC1	u	x	u	x	25%[59 µM]	x
5	C=CCn1c(SCC(=O)N2CCN(c3ccccc3)CC2)nc2c([nH]c3ccccc32)c1=O	5%	x	x	x	41%	2%
6	O=C(CSc1nc2ccccc2c(=O)n1Cc1ccco1)N1CCN(c2ccccc2)CC1	-1%	u	u	u	14µM*	u
7	C=CCn1c(N)cc(=O)nc1SCC(=O)N1CCN(c2ccc(F)cc2)CC1	-2%	14µM*	-4%	5%	13%[59 µM]	13%
8	O=C(CSc1nc2ccccc2[nH]1)N1CCN(c2ccc(F)cc2)CC1	8%	25µM*	-18%	10%	-10%[12.7 µM]	-3%
9	CC1CCN(C(=O)CSc2nc3ccccc3[nH]2)CC1	-62%	u	-5%	-2%	5%[12.7 µM]	23%
10	N#CC(C#N)=C1NC(N)=C(C#N)C(c2ccccc2)=C1C#N	3%	x	x	x	3.5µM*	56µM*
11	COC(=O)[C@@H]1CCCN1C(=O)[C@H]1C[C@@H]1[C@H](NC(=O)OCc1ccccc1)c1ccccc1	x	u	x	-2%	x	6%
12	CCOC(=O)N1CCN(C2CC(=O)N(c3ccc(Cl)c(Cl)c3)C2=O)CC1 (stereo unspecified)	-4%	14µM*	-16%	1%	u	-3%
13	CCN1C(=O)CC(N2CCC(Nc3ccc(F)cc3)CC2)C1=O (stereo unspecified)	0%	-7%	-10%	-3%	12%[59 µM]	23%
14	Cc1cccc(N2C(=O)CC(N3CCN(C(=O)c4ccccc4)CC3)C2=O)c1 (stereo unspecified)	-2%	25µM*	-6%	10%	-3%[12.7 µM]	8%
15	Cc1cccc(N2C(=O)CC(N3CCN(c4ccccc4)CC3)C2=O)c1 (stereo unspecified)	-9%	u	-1%	-6%	-60%	3%
16	CCOC(=O)c1ccc(N2C(=O)CC(N3CCC(Nc4ccc(F)cc4)CC3)C2=O)cc1 (stereo unspecified)	-2%	3.2µM*	0%	-8%	10µM*	6%
17	CCOC(=O)C1CCCN(C2CC(=O)N(c3cccc(C)c3)C2=O)C1 (stereo unspecified)	-5%	u	1%	1%	28µM*	-22%
18	CN(C(=O)CSc1nc2ccc(NC(=O)c3ccc(F)cc3)cc2s1)c1ccccc1	u	x	u	x	12%[59 µM]	x
19	O=C1CC(N2CCN(Cc3ccccc3)CC2)C(=O)N1c1ccccc1 (stereo unspecified)	-1%	-14%	9%	-3%	1%[2.33 µM]	15%
20	CCOC(=O)c1ccc(N2C(=O)CC(N3CCCC(C)C3)C2=O)cc1 (stereo unspecified)	3%	3.2µM*	3%	-5%	10µM*	-22%
21	CCOC(=O)c1ccc(N2C(=O)CC(N3CCN(Cc4ccccc4)CC3)C2=O)cc1 (stereo unspecified)	-1%	28µM*	0%	2%	-8%	18%
22	CCOC(=O)c1nc(Nc2ccc(N3CCC(C)CC3)cc2)c2ccccc2n1	3%	-3%	x	-6%	x	-12%
23	O=[n+]1ccn([O-])c2ccccc21	x	x	x	x	-6%[12.7 µM]	4%
24	NC(=O)c1sc2nc3c(c(-c4ccco4)c2c1N)CCCC3	20%	x	x	0%	-28%[59 µM]	-12%
25	Nc1c(C(=O)NCC2CCCO2)sc2nc3c(c(-c4ccco4)c12)CC/C3=C\c1ccco1 (stereo unspecified)	-4%	u	2%	7.1µM*	8.9µM*	32µM*

Results in ALDH1A1 block, G9a block and miR-21 FLuc, for some of the entries so far:
no.	SMILES	ALDH1A1 block	G9a block	miR-21 FLuc
17	CCOC(=O)C1CCCN(C2CC(=O)N(c3cccc(C)c3)C2=O)C1 (stereo unspecified)	u	28µM*	-5%
15	Cc1cccc(N2C(=O)CC(N3CCN(c4ccccc4)CC3)C2=O)c1 (stereo unspecified)	u	-60%	-9%
9	CC1CCN(C(=O)CSc2nc3ccccc3[nH]2)CC1	u	5%[12.7 µM]	-62%
25	Nc1c(C(=O)NCC2CCCO2)sc2nc3c(c(-c4ccco4)c12)CC/C3=C\c1ccco1 (stereo unspecified)	u	8.9µM*	-4%
8	O=C(CSc1nc2ccccc2[nH]1)N1CCN(c2ccc(F)cc2)CC1	25µM*	-10%[12.7 µM]	8%

Further entries.
cpd	molecule	miR-21 FLuc	ALDH1A1 block	LMNA splice mod	KDM4E inh	G9a block	Sfp PPTase inh
26	Cc1ccccc1NC(=O)c1sc2nc3c(c(-c4ccco4)c2c1N)CCC3	-17%	2%	7%	1%	40µM*	u
27	Cc1cccc(C)c1OCc1cc(C(=O)N2CCN(c3ccccc3)CC2C)no1 (stereo unspecified)	-7%	x	x	x	-15%	-11%
28	COc1cccc(C2C(C(=O)c3cccs3)=C(O)C(=O)N2CCN2CCOCC2)c1OC (stereo unspecified)	-3%	x	x	x	u	-3%
29	O=C(C1=C(O)C(=O)N(CCN2CCOCC2)C1c1ccc(F)cc1)c1cccs1 (stereo unspecified)	0%	x	x	x	71µM*	3%
30	CCCCOc1ccc(C2C(C(=O)c3cccs3)=C(O)C(=O)N2CCN2CCOCC2)cc1 (stereo unspecified)	-12%	x	x	x	x	-1%
31	CC(=O)C1=C(O)C(=O)N(CCc2c[nH]c3ccccc23)C1c1ccc(C)cc1 (stereo unspecified)	-9%	-3%	u	-3%	45µM*	15%
32	CCOc1ccc(C2C(C(=O)c3cccs3)=C(O)C(=O)N2CCN2CCOCC2)cc1 (stereo unspecified)	-7%	x	x	x	50µM*	-3%
33	O=C(C1=C(O)C(=O)N(CCN2CCOCC2)C1c1ccccn1)c1cccs1 (stereo unspecified)	-17%	19µM*	0%	u	2.5µM*	u
34	CCCCCn1c(-c2ccc(OC)c(OC)c2)nc2ccccc21	u	x	x	x	11%[59 µM]	x
35	Cc1nc(-n2nc(C)c(Cc3ccc(Cl)cc3)c2C)sc1C(=O)N1CCC(C)CC1	-2%	x	-10%[46 µM]	x	-4%[59 µM]	x
36	COc1cccc(C2C(C(=O)c3cccs3)=C(O)C(=O)N2CCN2CCOCC2)c1 (stereo unspecified)	-2%	x	x	x	16%	17%
37	CCCOc1cccc(C2C(C(=O)c3cccs3)=C(O)C(=O)N2CCN2CCOCC2)c1 (stereo unspecified)	-1%	x	x	x	79µM*	-7%
38	COCCN1C(=O)C(O)=C(C(C)=O)C1c1ccc(F)cc1 (stereo unspecified)	1%	14µM*	2%	u	u	-28%
39	COCCN1C(=O)C(O)=C(C(=O)c2cccs2)C1c1ccccc1 (stereo unspecified)	-2%	2%	6%	-2%	18µM*	4%
40	CCOc1ccc(N(C(=O)c2ccc(OC)cc2)S(=O)(=O)c2ccc3c(c2)n(C)c(=O)n3C)cc1	-3%	x	x	x	-40%[59 µM]	x
41	CC(=O)N1CCc2ccc(C(=O)CN3CCN(c4cccc(C)c4C)CC3)cc21	-7%	8.9µM*	12%	-5%	u	-4%
